According to PubChem BioAssay AID720506 (National Center for Advancing Translational Sciences (NCATS), 2013):
The list shows a part of the results, in another mix than the full data. Records with an inconclusive call do not appear. The source made the active and inactive calls. Calls come from the whole dose curve; as a rule, active = well fitted activation curve with a large enough effect; inconclusive = small, poorly fitted or top-dose-only effect; inactive = flat fitted curve, though single readings scatter.

Protein sequences, listed by entry. Tags and fused reporters are not part of them.
UniProt P35462, whole entry: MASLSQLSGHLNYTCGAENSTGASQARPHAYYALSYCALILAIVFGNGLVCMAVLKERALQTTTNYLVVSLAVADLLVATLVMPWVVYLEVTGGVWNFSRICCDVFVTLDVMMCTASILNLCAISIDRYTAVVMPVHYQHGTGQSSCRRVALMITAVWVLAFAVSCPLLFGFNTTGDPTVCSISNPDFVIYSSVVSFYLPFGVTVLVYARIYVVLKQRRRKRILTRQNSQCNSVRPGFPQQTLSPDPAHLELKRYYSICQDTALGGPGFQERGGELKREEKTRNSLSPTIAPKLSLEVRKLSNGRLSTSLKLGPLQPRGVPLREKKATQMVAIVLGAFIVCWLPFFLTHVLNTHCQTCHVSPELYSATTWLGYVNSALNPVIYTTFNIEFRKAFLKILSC

Molecular target: D(3) dopamine receptor (Homo sapiens) (UniProt P35462)
Experiment: qHTS of D3 Dopamine Receptor Agonist: D3 Dopamine Receptor B-arrestin Agonist Confirmatory Assay;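 note: 100% = dopamine control response; nearly all actives have a fitted effect of over 70% in size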
Settings: DiscoveRx D3 beta-arrestin cells, luminescence, 90 min; at 76.9 µM (top of the series)
Description: D3 DARs represent a very important target for the treatment of several neuropsychiatric disorders. Indeed, one of the most promising therapeutic applications for the D3 DAR is in the area of addiction and related disorders. […] These findings have been observed with a number of addictive substances including cocaine, amphetamine, nicotine, and alcohol. […] Increased D3 DAR activity can thus lead to neuroprotective and neurorestorative actions in the CNS. […] This assay is used to confirm the activity of the identified D3 dopamine receptor agonist. Activation is the desired outcome for this assay. NIH Molecular Libraries Probe Production Centers Network [MLPCN] NIH Chemical Genomics Center [NCGC] MLPCN Grant: NS064831 Assay Submitter (PI): David Sibley
Freshly passaged DiscoveRx D3 cells are plated in 1536 well white, solid bottom plates at a density of 1500 cells/well in 3microl of complete media. After an overnight incubation at 37 degrees C in 5% CO2, cells are loaded with 23nl of test compound from the compound library (as well as dopamine controls) using a 1536 pintool and incubated at 37 degrees C for 90 minutes. Two microliters of DiscoveRx reagent is then added to all cells, and they are incubated for an additional 30 - 60 minutes at room temperature. Following incubation, luminescence is measured on a ViewLux CCD-based luminometer reader using a 20 sec exposure time.

| SMILES | activation |
| --- | --- |
| O=C(NCC1(N2CCCCC2)CCCCC1)c1ccc(Cl)s1 | inactive: -6.93% |
